scFv variants of Ab-95 (light chain) against a SARS-CoV-2 spike peptide

Data: MIT Lincoln Laboratory AlphaSeq set, Engelhart et al. 2022, doi:10.1038/s41597-022-01779-4, as distributed in FLAb.

Antigen: PDVDLGDISGINAS, a 14-residue peptide of the SARS-CoV-2 spike HR2 region.

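The starting antibody came from a phage panning campaign against this peptide. In library AAYL52, one, two or three CDR residues were substituted; doubles and triples were drawn at random. In AlphaSeq, yeast of one mating type display the scFv and yeast of the other type display the target. Mating (16 h, 30 °C) was followed by selection of diploids and sequencing of their barcodes. Read counts were normalised to the haploid input and turned into Kd by a linear fit to BCL2-family pairs of known affinity, for each replicate. The assay was run in three technical replicates.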

Ab-95 is the parent antibody, in scFv form: VH, then the linker GGGGSGGGGSGGGGS, then VL. The heavy chain is unchanged in all variants.
VH: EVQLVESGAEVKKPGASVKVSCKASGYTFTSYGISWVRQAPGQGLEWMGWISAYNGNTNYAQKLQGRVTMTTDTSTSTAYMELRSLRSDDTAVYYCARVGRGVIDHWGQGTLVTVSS
VL: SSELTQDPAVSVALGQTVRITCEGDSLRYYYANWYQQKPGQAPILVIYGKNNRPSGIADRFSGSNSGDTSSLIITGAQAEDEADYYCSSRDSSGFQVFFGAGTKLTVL

Each variant is given by its three light chain CDRs, as the data file delimits them; those of the parent are EGDSLRYYYAN, GKNNRPS, SSRDSSGFQVF.
Scale: log10 of Kd in nM, estimated from mating counts; low values are strong binders.
A pair that was not seen in that replicate is written "nd"; this usually means weak binding, but a binder can also be missed.

CDR-L1,CDR-L2,CDR-L3,"log10 Kd, replicates",control signals
EGASLRWYYAN,GKNNRPS,SSTDSSGFQVF,3.28 2.71 nd,3/9 (3.63)
EGDSLRYYYAN,GKNNRPF,SYRDSSGFVVF,nd nd nd,1/9 (2.34)
EGDSLRYGYAN,GKYNRPS,SKRDSSGFQVF,1.96 1.85 1.60,5/9 (4.62)
EEDSLRYYKAN,GKNNRPS,HSRDSSGFQVF,nd nd nd,0/9
EGDSLRYGYAN,GKNNRPS,LSRDSSGFQVF,1.88 1.65 1.45,2/9 (3.45)
EGDSLRYYYAN,GKGNRPS,SSRDSSGFQKH,3.59 nd 2.92,1/9 (3.84)
EGDSLRYYSAN,GKNNRPS,SSRYSSAFQVF,nd nd nd,2/9 (3.45)
GGDSLRYYYKN,GKNNRPS,SSRDSGGFQVF,5.14 nd nd,6/9 (4.30)
EGDAVRYYYAN,GKNFRPS,SSRDSSGFQVF,3.63 2.64 3.00,1/9 (4.39)
EGDSSRYYCAN,GKNNRPS,SSLDSSGFQVF,4.25 nd nd,7/9 (4.36)
EGDSLRYYYAN,TKNNRPS,SSRDSSGEVVF,5.50 4.11 4.30,2/9 (4.20)
EGDSLRYYEAN,GKNNRPC,SSRDSSQFQVF,2.14 2.36 1.84,3/9 (3.36)
EGDSLRYYDAN,GKNNRPS,SERYSSGFQVF,1.41 1.18 0.30,4/9 (4.06)
EGPSERYYYAN,GKNNRPS,FSRDSSGFQVF,3.94 4.10 nd,0/9
EMDSLRYYYAN,YKNNRPS,SSRESSGFQVF,5.45 4.16 nd,2/9 (3.63)
RADSLRYYYAN,GKNNRPS,SSRDSSGFCVF,3.55 3.25 2.56,1/9 (3.80)
FGDSLRYYYGN,GKNNVPS,SSRDSSGFQVF,2.66 2.78 2.32,2/9 (3.92)
EGDSLRYYYMN,QKNNRPS,SSRDSSGPQVF,nd nd nd,1/9 (3.60)
EGDSLRYHLAN,GKNWRPS,SSRDSSGFQVF,1.99 1.92 1.60,4/9 (4.23)
MGDSLRYYYAN,GKNNRPS,SSQDSSTFQVF,3.81 4.29 nd,4/9 (3.67)
KIQSLRYYYAN,GKNNRPS,SSRDSSGFQVF,4.14 4.25 3.03,5/9 (4.06)
EGDSLRYYYAN,GKNDRDS,ESRDSSGFQVF,3.07 nd 3.03,1/9 (3.97)
EGISLRYYYAN,GKNNRPS,SSRHSSGFQVR,3.77 3.06 3.88,2/9 (3.82)
EGDCHRYSYAN,GKNNRPS,SSRDSSGFQVF,4.40 3.12 3.08,0/9
EGDSLEYYYAN,GVNQRPS,SSRDSSGFQVF,3.98 nd nd,1/9 (3.08)
EGDSLRAYYAN,GKNNRFS,SRRDSSGFQVF,nd nd 3.81,1/9 (3.06)
EGDSLRYSVAN,GKNNRSS,SSRDSSGFQVF,2.85 2.50 3.23,2/9 (4.22)
EGDSLRMYYAN,GKNNRPS,SSRDSSGFQVF,3.23 3.19 3.17,3/9 (3.07)
IDDSLRYYYAN,GKNNRPS,SSRDSSGFQVM,3.02 nd nd,0/9
EGDSLRYYYAN,GKHNRPS,SSRDMSGFNVF,2.92 3.36 2.72,1/9 (3.68)
EGDSLRYYYAN,GKNYRPE,SSRDSSGFQVF,2.08 1.97 1.98,4/9 (4.01)
EGGSLRYRYAN,GKNNRPS,SSRDSSGFQSF,2.02 2.28 2.89,0/9
EGDSLRYYYWN,GKNNNPS,SSRDSSGFLVF,5.51 3.27 3.65,1/9 (4.95)
EGHSLRYYYAN,GKNNRPS,SSRDSSCFQVQ,3.68 2.61 2.71,3/9 (3.49)
CGDSLRCYYAN,GKNNRPS,SSRDSSGYQVF,2.54 2.45 2.20,3/9 (3.70)
MGDSLRYYYAC,GKNNHPS,SSRDSSGFQVF,4.78 5.47 nd,3/9 (3.91)
YGDSLRYVWAN,GKNNRPS,SSRDSSGFQVF,2.74 2.73 2.94,2/9 (3.73)
EGDELRYYYAN,GKNNRPS,SSLDSHGFQVF,nd nd 4.16,2/9 (4.45)
EGDSLRYYYAN,GKNNRPS,SSRDMSMDQVF,2.84 2.39 2.92,3/9 (3.60)
EGDSLRYYYAN,LMNNRPS,SSRDSSGFQVW,nd nd 3.95,2/9 (3.86)
EGDSLKYYYTN,GKNNRPS,SRRDSSGFQVF,3.68 3.33 3.56,4/9 (3.78)
EGDSLRYYYAN,GKNNRPL,SSRDSSGFQVF,2.29 2.05 2.44,1/9 (3.06)
EGDSLRYHYAN,GKNNRPS,SCRDSSEFQVF,nd nd nd,0/9
EGDSLRYYYSN,GKNNRPS,SSRDVSGHQVF,2.55 2.47 2.69,2/9 (3.87)
EGDSFRYYYAN,GKNNRPS,SSRDSSDWQVF,3.01 3.30 nd,2/9 (4.91)
EGHSLFYYYAN,GKNNRPS,SSRDRSGFQVF,2.35 2.54 1.51,4/9 (4.28)
EGDSLRYYVAN,GKNNRPS,SSRDSSEFQVE,3.03 5.44 nd,0/9
EGDSLRYYYAN,GKNWRAS,SSRDSSGFQVC,3.26 3.43 3.62,5/9 (3.94)
EGDLLRYYYAN,GKNNRPQ,SSRDKSGFQVF,2.71 3.13 2.49,2/9 (3.32)
EGDSLRYYYAN,MKNRRPS,SSNDSSGFQVF,nd nd nd,0/9
EGDSLRYYYAN,GKNNRPS,SGKDSSGFQVF,nd 3.03 nd,3/9 (3.20)
EGDSLRYYYAF,TKNNRPS,SSRDWSGFQVF,3.26 5.38 nd,3/9 (3.31)

Excerpt, the final 5 entries:

CDR-L1	CDR-L2	CDR-L3	log10 Kd, replicates	control signals
EGDSLRYYYAN	GKNWRAS	SSRDSSGFQVC	3.26 3.43 3.62	5/9 (3.94)
EGDLLRYYYAN	GKNNRPQ	SSRDKSGFQVF	2.71 3.13 2.49	2/9 (3.32)
EGDSLRYYYAN	MKNRRPS	SSNDSSGFQVF	nd nd nd	0/9
EGDSLRYYYAN	GKNNRPS	SGKDSSGFQVF	nd 3.03 nd	3/9 (3.20)
EGDSLRYYYAF	TKNNRPS	SSRDWSGFQVF	3.26 5.38 nd	3/9 (3.31)

Nonspecific signal, from three strains lacking the peptide, appeared in 28% of pairings of library AAYL52, centred on 3.91 (5% of these signals below 2.90); values are not corrected for it. Also given: how often the same scFv was detected with the empty control strains, with their mean in brackets.